Source: US5538728A, “Hydrophilic polymer-silicate mineral complex material and use thereof” (priority 1989, dated 1996)

Assay: solubility test of griseofulvin in water
Type: physicochemical
Settings: 5 mg griseofulvin in one liter water, 37° C.

Amount dissolved (griseofulvin) (0 min): 0 | Amount dissolved (griseofulvin) (3 min): 18 | Amount dissolved (griseofulvin) (6 min): 24 | Amount dissolved (griseofulvin) (10 min): 26 | Amount dissolved (griseofulvin) (15 min): 27 | Amount dissolved (griseofulvin) (20 min): 28 | Amount dissolved (griseofulvin) (30 min): 28 | Amount dissolved (griseofulvin) (60 min): 28
SMILES: COC1=CC(=O)C[C@@H](C)[C@]12Oc1c(Cl)c(OC)cc(OC)c1C2=O [griseofulvin]
